Experimental data taken from US9975882B2, “Heteroaromatic compounds as BTK inhibitors” (Boehringer Ingelheim International GmbH, priority 2015, dated 2018).

Chains of the proteins cited; added tags and fusions are not shown. Lines headed by an entry give the natural chain unless they say otherwise; changes in a name come on top.
UniProt Q06187: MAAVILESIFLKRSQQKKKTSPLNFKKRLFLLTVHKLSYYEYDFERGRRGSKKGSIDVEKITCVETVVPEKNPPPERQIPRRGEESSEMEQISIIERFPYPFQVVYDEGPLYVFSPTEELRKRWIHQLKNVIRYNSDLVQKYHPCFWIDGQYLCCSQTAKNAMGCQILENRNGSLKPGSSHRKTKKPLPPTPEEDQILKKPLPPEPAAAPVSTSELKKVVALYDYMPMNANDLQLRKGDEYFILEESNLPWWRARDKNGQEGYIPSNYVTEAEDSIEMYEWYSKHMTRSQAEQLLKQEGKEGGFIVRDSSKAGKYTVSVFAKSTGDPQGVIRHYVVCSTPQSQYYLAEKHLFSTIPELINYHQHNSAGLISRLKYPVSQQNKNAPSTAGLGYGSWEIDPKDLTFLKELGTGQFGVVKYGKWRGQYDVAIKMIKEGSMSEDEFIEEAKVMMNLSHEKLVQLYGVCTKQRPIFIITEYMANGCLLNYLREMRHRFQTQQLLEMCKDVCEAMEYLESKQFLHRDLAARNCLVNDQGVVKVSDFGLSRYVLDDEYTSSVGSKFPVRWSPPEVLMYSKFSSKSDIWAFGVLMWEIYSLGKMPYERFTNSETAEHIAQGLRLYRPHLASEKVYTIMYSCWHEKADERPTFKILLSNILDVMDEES

Target: human recombinant BTK (full length, His-tagged) (Homo sapiens (Human), UniProt Q06187)
Assay: BTK Z'-LYTE assay;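 also: FRET readout of kinase phosphorylating a coumarin and fluorescein labelled synthetic peptide, detected via protease sensitivity of unphosphorylated versus phosphorylated substrate, incubated at 22 °C in 384-well plates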
Assay type: biochemical
Details: 25 μM ATP

Structure (SMILES): C=CC(=O)Nc1cccc(Nc2nc(Nc3ccc(OCCOC)cc3)ncc2F)c1 [Compound C, N-(3-(5-fluoro-2-(4-(2-methoxyethoxy)phenylamino)pyrimidin-4-ylamino)phenyl)acrylamide]
- IC50: 6.1 nM
